Earlier results as cited in patent US12233128B2, “Degraders that target ALK and therapeutic uses thereof” (DANA-FARBER CANCER INSTITUTE, INC., priority 2018, dated 2025).

System: ALK-positive tumors
Details: ALK-positive NSCLC, before resistance develops; cited from earlier work

SMILES | median duration of initial response [months]
C[C@@H](Oc1cc(-c2cnn(C3CCNCC3)c2)cnc1N)c1c(Cl)ccc(F)c1Cl [crizotinib] | 10.9
CCc1cc2c(cc1N1CCC(N3CCOCC3)CC1)C(C)(C)c1[nH]c3cc(C#N)ccc3c1C2=O [alectinib] | 25.7
